# The other results are listed elsewhere or left out.
# T1: LIN28A (human?, UniProt Q9H9Z2 1-209)
# T1 sequence: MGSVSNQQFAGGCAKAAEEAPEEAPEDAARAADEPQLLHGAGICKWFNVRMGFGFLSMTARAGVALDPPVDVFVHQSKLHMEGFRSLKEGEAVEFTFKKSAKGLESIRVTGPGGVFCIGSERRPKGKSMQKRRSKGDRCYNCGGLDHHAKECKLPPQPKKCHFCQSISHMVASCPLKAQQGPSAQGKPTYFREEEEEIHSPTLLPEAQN
# T2: CIRBP (Homo sapiens, UniProt Q14011 1-172)
# T2 sequence: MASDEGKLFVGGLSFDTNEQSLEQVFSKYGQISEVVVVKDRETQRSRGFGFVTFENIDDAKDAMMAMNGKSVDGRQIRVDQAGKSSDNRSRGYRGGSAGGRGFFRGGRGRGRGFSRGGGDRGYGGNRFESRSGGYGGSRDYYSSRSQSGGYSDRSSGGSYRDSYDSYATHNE
# T3: DHX36 (Homo sapiens, UniProt Q9H2U1 1-1008)
# T3 sequence: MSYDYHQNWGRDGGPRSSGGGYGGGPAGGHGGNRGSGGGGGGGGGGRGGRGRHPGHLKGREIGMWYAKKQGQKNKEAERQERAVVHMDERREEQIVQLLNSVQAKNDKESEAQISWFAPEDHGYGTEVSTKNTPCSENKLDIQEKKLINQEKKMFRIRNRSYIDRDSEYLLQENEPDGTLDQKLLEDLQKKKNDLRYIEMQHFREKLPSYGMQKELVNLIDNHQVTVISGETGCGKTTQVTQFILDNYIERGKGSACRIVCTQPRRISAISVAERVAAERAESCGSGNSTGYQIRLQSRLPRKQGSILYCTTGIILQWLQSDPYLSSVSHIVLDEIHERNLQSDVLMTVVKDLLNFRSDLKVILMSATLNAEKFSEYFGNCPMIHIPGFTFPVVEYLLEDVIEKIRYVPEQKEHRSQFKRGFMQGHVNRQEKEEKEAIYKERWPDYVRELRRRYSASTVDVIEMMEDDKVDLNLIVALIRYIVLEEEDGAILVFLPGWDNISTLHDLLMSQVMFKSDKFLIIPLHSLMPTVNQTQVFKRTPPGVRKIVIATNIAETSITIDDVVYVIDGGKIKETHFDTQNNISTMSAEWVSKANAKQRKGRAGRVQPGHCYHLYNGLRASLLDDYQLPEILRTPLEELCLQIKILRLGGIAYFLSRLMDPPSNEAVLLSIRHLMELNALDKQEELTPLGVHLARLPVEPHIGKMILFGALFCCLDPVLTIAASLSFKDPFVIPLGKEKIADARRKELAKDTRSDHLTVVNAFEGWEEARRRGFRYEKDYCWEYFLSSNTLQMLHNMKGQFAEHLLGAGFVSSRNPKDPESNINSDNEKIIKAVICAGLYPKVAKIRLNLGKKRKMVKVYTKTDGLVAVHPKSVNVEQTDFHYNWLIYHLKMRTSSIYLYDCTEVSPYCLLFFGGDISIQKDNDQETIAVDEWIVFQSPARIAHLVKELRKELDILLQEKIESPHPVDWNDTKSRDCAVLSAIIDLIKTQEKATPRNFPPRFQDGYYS
# Tests used:
# Assay in all cases: FOREST: bead pull-down of RNA structure library v1, barcode microarray; U1A/LIN28A: 20 mM HEPES pH 7.5, 80 mM KCl, 20 mM NaCl, 10% glycerol, 2 mM DTT, 0.1 ug/uL BSA, 4 C; BG4/CIRBP/DHX36: 10 mM Tris-HCl pH 7.5, 100 mM KCl (or LiCl),; high values mean tight binding
# [1] = molecular target: T1, LIN28A
# [2] = molecular target: T2, CIRBP
# [3] = molecular target: T3, DHX36
binder,measurement,setting,value
hsa-mir-99a (structured_RNA) RNA: GGGAAACAAAACAGGGCCCUAGACACUUGGUGUACGAAGUUUCAGCCUUGUGGUGAAGUGGACCGCACAAGGCUGAAGCUUCGUGCAC,binding signal,[1],0.69 z-score
same,binding signal,[2],-0.0254 z-score
same,binding signal,[3],-0.237 z-score
hsa-mir-4464 (structured_RNA) RNA: GGGAAAGCGGUCUUAUGCAACAACAUGCGGUGUACGAAGUUUCAGCAAUAAAGUAUGUCCACAGCUGAAAGGACAUACUUUAUUGCUGAAGCUUCGUGCAC,binding signal,[1],0.688 z-score
same,binding signal,[2],1.09 z-score
same,binding signal,[3],0.829 z-score
hsa-mir-3195 (structured_RNA) RNA: GGGAAUCAGAUCGCGUUGUGCACCAGGAGGUGUACGAAGUUUCAGCGGUUGGCCGCUGACCCCCGCGGGGCCCCCGGCGGCCGCUGAAGCUUCGUGCAC,binding signal,[1],0.687 z-score
same,binding signal,[2],-0.425 z-score
same,binding signal,[3],0.35 z-score
hsa-mir-1912 (structured_RNA) RNA: GGGACAUUACCAUCCUGUAGUAGUCGGCGGUGUACGAAGUUUCAGCUGUAUAGUAUUAUUCAAUACCGCUGAAGCUUCGUGCAC,binding signal,[1],0.678 z-score
same,binding signal,[2],-0.799 z-score
same,binding signal,[3],-1.02 z-score
hsa-mir-514b (structured_RNA) RNA: GGGAACCAUAAAGAGGGCACUAUCAAGUGGUGUACGAAGUUUCAGCCAAUCAUGUGUAAUUAGAUAUGAUUGGCUGAAGCUUCGUGCAC,binding signal,[1],0.677 z-score
same,binding signal,[2],0.877 z-score
same,binding signal,[3],-0.176 z-score
hsa-mir-19a (structured_RNA) RNA: GGGACAAAGGCUGGUUAGCUGUAUUCGCGGUGUACGAAGUUUCAGCCACUACAAGAAGAAUGUAGUUGUGGCUGAAGCUUCGUGCAC,binding signal,[1],0.671 z-score
same,binding signal,[2],0.761 z-score
same,binding signal,[3],0.447 z-score
hsa-mir-200a (structured_RNA) RNA: GGGACAUUUCCGCAAAACACUCAGACUGGGUGUACGAAGUUUCAGCGCUGGAUUUCCCAGCUUGACUCUAACGCUGAAGCUUCGUGCAC,binding signal,[1],0.665 z-score
same,binding signal,[2],-0.196 z-score
same,binding signal,[3],-0.107 z-score
hsa-mir-3937 (structured_RNA) RNA: GGGAGGACGUUCGGUAAAGAUAUUCGUCGGUGUACGAAGUUUCAGCCUGUUGUUUCAGCUCGACAACAACAGGCUGAAGCUUCGUGCAC,binding signal,[1],0.66 z-score
same,binding signal,[2],0.517 z-score
same,binding signal,[3],0.303 z-score
hsa-mir-505 (structured_RNA) RNA: GGGAACGUAAGGUACUCAGAUGAGGGUCGGUGUACGAAGUUUCAGCGAUGUUUCUGCCAGUUUAGCGUCGCUGAAGCUUCGUGCAC,binding signal,[1],0.659 z-score
same,binding signal,[2],0.903 z-score
same,binding signal,[3],0.132 z-score
hsa-mir-3909 (structured_RNA) RNA: GGGACAGAGCGCAGUUAGUACCACCCAAGGUGUACGAAGUUUCAGCGACAGGGAAAAGCACACAAGGAACUUGUCGCUGAAGCUUCGUGCAC,binding signal,[1],0.658 z-score
same,binding signal,[2],-0.124 z-score
same,binding signal,[3],-0.81 z-score
hsa-mir-4735 (structured_RNA) RNA: GGGAGAGUGGCAAUAUGGUACAGCCGCUGGUGUACGAAGUUUCAGCCUUCGGUAUUCAUCAAAAAUACCAAAGGCUGAAGCUUCGUGCAC,binding signal,[1],0.652 z-score
same,binding signal,[2],-0.328 z-score
same,binding signal,[3],0.783 z-score
hsa-mir-323a (structured_RNA) RNA: GGGAAAAGAGGUGCUACGGUCUGAUUACGGUGUACGAAGUUUCAGCCGUUCGCUUUAUUUAUGGCGCACAGCUGAAGCUUCGUGCAC,binding signal,[1],0.651 z-score
same,binding signal,[2],1.2 z-score
same,binding signal,[3],0.596 z-score
hsa-mir-1262 (structured_RNA) RNA: GGGAGGCCUGCAUAAAACUCACUAGGUCGGUGUACGAAGUUUCAGCGGAUGAAAGUCAAAGAAUCCGCUGAAGCUUCGUGCAC,binding signal,[1],0.644 z-score
same,binding signal,[2],0.142 z-score
same,binding signal,[3],-0.48 z-score

# From article PMC7723054
